# Reference: patent US10828301B2, “2,4-pyrimidinediamine compounds and their uses” (Rigel Pharmaceuticals, Inc, priority 2002, dated 2020)
# Experiments:
# [1] = test system: FcεR1-mediated degranulation in mast cells; assay: FcεRI-mediated (anti-IgE induced) degranulation assay in mast cells; format: cell-based; conditions: Mast cell; range stated for the whole listed group of compounds; read-out: inhibition of FcεR1-mediated degranulation in mast cells (IC50s)
# [2] = test system: bone marrow derived mast cells (BMMC); assay: BMMC high cell density IgE activation: degranulation (hexosiminidase, histamine), leukotriene (LTC4) and cytokine (TNFalpha, IL-6) assays; format: cell-based; conditions: Mus musculus, anti-IgE activation
# Experimental: After sensitizing, cells are counted, pelleted (1000 rpm, 5-10 minutes), and resuspended at 1-3×10^6 cells/ml in MT buffer. Add 100 ul of cell suspension to each well and 100 ul of compound dilutions. The final vehicle concentration is 0.5% DMSO. Incubate at 37° C. (5% CO2) for 1 hour. After 1 hour of compound treatment, stimulate cells with 6× stimulus (60 ng/ml DNP-BSA). Mix wells with the cells and allow plates to incubate at 37° C. (5% CO2) for one hour. After 1 hour incubation, pellet cells (10 minutes, 1000 RPM) and collect 200 ul per well of the supernatant, being careful not to disturb pellet, and transfer to a clean tube or 96-well plate. Place the supernatant plate on ice. During the 4-5 hour step (see next) perform the hexosiminidase assay. Resuspend cell pellet in 240 ul WEI-conditioned media containing 0.5% DMSO and corresponding concentration of compound. Incubate BMMC cells for 4-5 hours at 37° C. (5% CO2). After incubation, pellet cells (1000 RPM, 10 minutes) and collect 225 ul per well and place in −80° C. until ready to perform ELISAS. ELISAS are performed on appropriately diluted samples (determined empirically for each donor cell population so that the sample measurement falls within the standard curve) following the supplier's instructions.
# Add 50 uL of BMMC cell supernatant (see above) to the hexoseaminidase substrate, place at 37° C. for 30 minutes and read the plate at 5, 10, 15, and 30 minutes on a spectrophotometer.
# [3] = test system: cultured human mast cells (CHMC); assay: CHMC low cell density IgE activation: tryptase and LTC4 assays; format: cell-based; conditions: anti-IgE activation, tryptase readout
# Experimental: Pellet CHMC cells (980 rpm, 10 min) and resuspend in pre-warmed MT. Add 65 ul of cells to each 96-well plate. Depending on the degranulation activity for each particular CHMC donor, load 1000-1500 cells/well. Mix four times followed by a 1 hr incubation at 37° C. […] Stimulate cells by adding 25 ul of 6× anti-IgE solution to the appropriate plates. Add 25 ul MT to un-stimulated control wells. Mix twice following addition of the anti-IgE. Incubate at 37° C. for 30 minutes. […] Spin plates at 1000 rpm for 10 min to pellet cells. Transfer 25 ul of supernatant to a 96-well black bottom plate and add 100 ul of freshly diluted tryptase substrate solution to each well. Incubate plates at room temperature for 30 min.
# Leukotriene C4 (LTC4) is also quantified using an ELISA kit on appropriately diluted supernatant samples (determined empirically for each donor cell population so that the sample measurement falls within the standard curve) following the supplier's instructions.
# [4] = 14-day oral toxicity study, mouse, 300 mg/kg
# Experimental: Several non-GLP pilot toxicity studies have been conducted in rodents. […] In a 14-day oral toxicity study in the mouse was conducted with doses of 100, 300 and 1000 mg/kg.
# [5] = Sheep model of allergic asthma (Ascaris suum challenge); format: in vivo; conditions: 30 mg/sheep, pretreatment 60 min, 45% PEG400/55% citrate buffer
# Experimental: Sheep develop bronchoconstriction within minutes of exposure to inhaled antigen (Ascaris suum), with maximal airflow obstruction during the early allergic response (EAR). Release of preformed mast cell mediators is likely responsible for this early phase of airflow obstruction. […] In the sheep, AHR develops a few hours following antigen challenge, and can persist for up to 2 weeks.
# In the sheep model of allergic asthma, sheep are administered aerosols of test article via an endotracheal tube, followed by an aerosol challenge with antigen extracted from the roundworm, Ascaris suum, to which the sheep are naturally allergic. Allergen challenge leads to direct bronchoconstriction (both EAR and LAR) and a persistent non-specific AHR. These three characteristics are similar to those seen in human allergic asthmatics. The activity of the test agent is determined by changes in the lung resistance (RL), which is calculated from measurements of transpulmonary pressure, flow, and respiratory volume. […] The LAR is a less pronounced increase in RL, which starts approximately 5-6 hours following allergen challenge and is resolved by 8 hours post-challenge. Twenty-four hours after the challenge, a dose response to carbachol is measured to determine the AHR, which is expressed as the dose of carbachol required to increase RL by 400% over baseline. […]
compound,measurement,setting,value
"OCCOc1ccc(Nc2ncc(F)c(Nc3ccc4c(c3)OCCO4)n2)cc1 [Compound R945144, N4-(3,4-Ethylenedioxyphenyl)-5-fluoro-N2-[4-(2-hydroxyethyloxy)phenyl]-2,4-pyrimidinediamine]",pIC50,[1],5.78 to 7.52
"O=C1COc2ccc(Nc3ncc(F)c(Nc4cccc(O)c4)n3)cc2N1 [Compound R909268, N2-(1,4-Benzoxazin-3-on-6-yl)-5-fluoro-N4-(3-hydroxyphenyl)-2,4-pyrimidinediamine]",pIC50,[1],5.78 to 7.52
"CC(C)(C)C(=O)Nc1cccc(Nc2ncc(F)c(Nc3cccc(O)c3)n2)c1 [Compound R940275, N2-(3-tert-Butylcarbonylaminophenyl)-N4-(3-hydroxyphenyl)-5-fluoro-2,4-pyrimidinediamine]",pIC50,[1],5.78 to 7.52
"COc1cc(Nc2ncc(F)c(Nc3ccc4c(c3)OCCO4)n2)cc(OC)c1 [Compound R926791, N2-(3,5-Dimethoxyphenyl)-N4-(3,4-ethylenedioxyphenyl)-5-fluoro-2,4-pyrimidinediamine]",pIC50,"[2]; IL-6 release, read-out: BMMC anti-IgE IL-6 IC50",> 7.25
same,pIC50,"[2]; LTC4 release, read-out: BMMC anti-IgE LTC4 IC50",6.05
same,pIC50,"[2]; TNF-alpha release, read-out: BMMC anti-IgE TNF-alpha IC50",6.69
same,pIC50,"[2]; hexosaminidase release, read-out: BMMC anti-IgE hexos IC50",7.19
same,pIC50,"[2]; histamine release, read-out: BMMC anti-IgE histamine IC50",> 7.25
same,pIC50,[1],5.78 to 7.52
same,pIC50,[3],6.63
"O=C1COc2ccc(Nc3nc(Nc4cccc(O)c4)ncc3F)cc2N1 [Compound R908702, N4-(1,4-Benzoxazine-3-on-6-yl)-5-fluoro-N2-(3-hydroxyphenyl)-2,4-pyrimidinediamine]",pIC50,[1],5.78 to 7.52
"Nc1cccc(Nc2ncc(F)c(Nc3cccc(N)c3)n2)c1 [Compound R921302, N2,N4-Bis(3-aminophenyl)-5-fluoro-2,4-pyrimidinediamine]",pIC50,[1],5.78 to 7.52
same,findings,[4],histopathological changes in the vulva
same,EAR (% inhibition),[5],unaffected
same,LAR (% inhibition),[5],blocked the LAR and AHR
"CC(C)(CO)NC(=O)c1cc2cc(Nc3ncc(F)c(Nc4cccc(O)c4)n3)ccc2o1 [Compound R926715, 5-Fluoro-N2-[2-(2-hydroxy-1,1-dimethylethylamino)carbonylbenzofuran-5-yl]-N4-(3-hydroxyphenyl)-2,4-pyrimidinediamine]",pIC50,[1],5.78 to 7.52
"Fc1cnc(Nc2cccc(-c3cnco3)c2)nc1Nc1ccc2c(c1)OCCO2 [Compound R926813, N4-(3,4-Ethylenedioxyphenyl)-5-fluoro-N2-[3-(1,3-oxazol-5-yl)phenyl]-2,4-pyrimidinediamine]",pIC50,[1],5.78 to 7.52

# pIC50: −log10 of the molar value. Like-named read-outs stand apart in the source and are kept apart here.
